# Reference: publication PMC11370232, “Repurposing of a library for high-content screening of inhibitors against Echinococcus granulosus” (Parasites & Vectors, 2024)
# Where a name gives a salt, the structure may show the parent alone. Read-outs that look alike come from different tables or passages of the source.
# Tested on: E. granulosus PSCs
# Assay: microbe, parasite or virus in culture
# Details: Echinococcus granulosus
# [1] = read-out: Anti-echinococcus activity % of death, 0.5uM
# [2] = read-out: Anti-echinococcus activity % of death, 2uM
# [3] = read-out: Anti-echinococcus activity % of death, 10uM
# [4] = read-out: Anti-echinococcus activity % of death, 50uM
# [5] = read-out: Anti-echinococcus activity % of death
# [6] = read-out: Anti-echinococcus activity % of death, 0.5uM, E. granulosus PSCs, compound at 0.5uM
# [7] = read-out: Anti-echinococcus activity % of death, 2uM, E. granulosus PSCs, compound at 2uM
# [8] = read-out: Anti-echinococcus activity % of death, 10uM, E. granulosus PSCs, compound at 10uM
# [9] = read-out: Anti-echinococcus activity % of death, 50uM, E. granulosus PSCs, compound at 50uM
structure (smiles),measurement,setting,value
Oc1c(Cl)cc(Cl)cc1Sc1cc(Cl)cc(Cl)c1O [bithionol],mortality at 0.5 µM,[1],0%
same,mortality at 2 µM,[2],0%
same,mortality at 10 µM,[3],0%
same,mortality at 50 µM,[4],100%
C[C@@H](NCCCc1cccc(C(F)(F)F)c1)c1cccc2ccccc12 [cinacalcet hydrochloride],mortality at 0.5 µM,[5],0%
same,mortality at 2 µM,[5],0%
same,mortality at 10 µM,[5],0%
same,mortality at 50 µM,[5],100%
CCCCc1oc2ccc(NS(C)(=O)=O)cc2c1C(=O)c1ccc(OCCCN(CCCC)CCCC)cc1 [dronedarone hydrochloride],mortality at 0.5 µM,[1],0%
same,mortality at 2 µM,[2],0%
same,mortality at 10 µM,[3],100%
same,mortality at 50 µM,[4],100%
CC[C@H](C)[C@H]1O[C@]2(CC[C@@H]1C)C[C@@H]1C[C@@H](C/C=C(\C)[C@@H](O[C@H]3C[C@H](OC)[C@@H](O[C@H]4C[C@H](OC)[C@@H](O)[C@H](C)O4)[C@H](C)O3)[C@@H](C)/C=C/C=C3\CO[C@@H]4[C@H](O)C(C)=C[C@@H](C(=O)O1)[C@]34O)O2 [ivermectin 1%],mortality at 0.5 µM,[1],0%
same,mortality at 2 µM,[2],0%
same,mortality at 10 µM,[3],0%
same,mortality at 50 µM,[4],100%
CN[C@]1(c2ccccc2)CC[C@]2(CC1)OCCc1c3cc(F)ccc3[nH]c12 [lexanopadol],mortality at 0.5 µM,[5],0%
same,mortality at 2 µM,[5],0%
same,mortality at 10 µM,[5],0%
same,mortality at 50 µM,[5],100%
Cc1cccc(C)c1NC(=O)CN1CCN(CCCC(c2ccc(F)cc2)c2ccc(F)cc2)CC1 [lidoflazine],mortality at 0.5 µM,[6],0%
same,mortality at 2 µM,[7],0%
same,mortality at 10 µM,[8],0%
same,mortality at 50 µM,[9],100%
"COCC(=O)O[C@]1(CCN(C)CCCc2nc3ccccc3[nH]2)CCc2cc(F)ccc2[C@@H]1C(C)C [mibefradil dihydrochloride,Tau]",mortality at 0.5 µM,[6],0%
same,mortality at 2 µM,[7],0%
same,mortality at 10 µM,[8],0%
same,mortality at 50 µM,[9],100%
OC(CNCC(O)C1CCc2cc(F)ccc2O1)C1CCc2cc(F)ccc2O1 (centres unmarked) [nebivolol hydrochloride],mortality at 0.5 µM,[1],0%
same,mortality at 2 µM,[2],0%
same,mortality at 10 µM,[3],0%
same,mortality at 50 µM,[4],100%
CCCCCCCCN=c1ccn(CCCCCCCCCCn2ccc(=NCCCCCCCC)cc2)cc1 [octenidine],mortality at 0.5 µM,[1],0%
same,mortality at 2 µM,[2],0%
same,mortality at 10 µM,[3],50%
same,mortality at 50 µM,[4],100%
[O-][n+]1ccccc1S [omadine],mortality at 0.5 µM,[6],0%
same,mortality at 2 µM,[7],0%
same,mortality at 10 µM,[8],0%
CCOc1cc2ncc(C#N)c(Nc3ccc(F)c(Cl)c3)c2cc1NC(=O)/C=C/CN(C)C [pelitinib],mortality at 0.5 µM,[1],0%
same,mortality at 2 µM,[2],0%
same,mortality at 10 µM,[3],30%
same,mortality at 50 µM,[4],100%
Cc1nc(Nc2ccc(F)cc2)nc(N2CCc3ccccc3C2C)c1C (centres unmarked) [revaprazan],mortality at 0.5 µM,[1],0%
same,mortality at 2 µM,[2],0%
same,mortality at 10 µM,[3],0%
same,mortality at 50 µM,[4],100%
CN[C@H]1CC[C@@H](c2ccc(Cl)c(Cl)c2)c2ccccc21 [sertraline hydrochloride],mortality at 0.5 µM,[1],0%
same,mortality at 2 µM,[2],0%
same,mortality at 10 µM,[3],0%
CC(OCCN1CCCCCC1)(c1ccccc1)c1ccc(Cl)cc1 (centres unmarked) [setastine],mortality at 0.5 µM,[1],0%
same,mortality at 2 µM,[2],0%
same,mortality at 10 µM,[3],0%
same,mortality at 50 µM,[4],100%
COc1cc(C)c2c(Oc3cccc(C(F)(F)F)c3)c(OC)cc(NC(C)CCCN)c2n1 (centres unmarked) [tafenoquine],mortality at 0.5 µM,[1],0%
same,mortality at 2 µM,[2],0%
same,mortality at 10 µM,[3],0%
same,mortality at 50 µM,[4],100%
CSc1ccc2c(c1)N(CCC1CCCCN1C)c1ccccc1S2 (centres unmarked) [thioridazine],mortality at 0.5 µM,[1],0%
same,mortality at 2 µM,[2],0%
same,mortality at 10 µM,[3],0%
same,mortality at 50 µM,[4],100%
Cc1cc(/N=C(\Nc2nccs2)NC2CCCCC2)c2ccccc2n1 [timegadine],mortality at 0.5 µM,[5],0%
same,mortality at 2 µM,[5],0%
same,mortality at 10 µM,[5],0%
same,mortality at 50 µM,[5],100%
c1ccc(SCCCNCCC(c2ccccc2)c2ccccc2)cc1 [tiopropamine],mortality at 0.5 µM,[5],0%
same,mortality at 2 µM,[5],0%
same,mortality at 10 µM,[5],0%
same,mortality at 50 µM,[5],100%
Cn1cncc1[C@@](N)(c1ccc(Cl)cc1)c1ccc2c(c1)c(-c1cccc(Cl)c1)cc(=O)n2C [tipifarnib],mortality at 0.5 µM,[6],0%
same,mortality at 2 µM,[7],0%
same,mortality at 10 µM,[8],0%
same,mortality at 50 µM,[9],100%
